In general, Kd refers to a measure of binding affinity in units of concentration. Higher therefore signals lower affinity.

Amino acid sequences for entries named in this document (tags omitted). Residues count along the entry.
UniProt P79182, 117-268 limits assumed: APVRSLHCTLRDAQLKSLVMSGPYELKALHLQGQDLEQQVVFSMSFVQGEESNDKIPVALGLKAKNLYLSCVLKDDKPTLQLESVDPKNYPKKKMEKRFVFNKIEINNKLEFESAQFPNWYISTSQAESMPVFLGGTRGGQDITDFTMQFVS
UniProt P10749, 118-269 limits assumed: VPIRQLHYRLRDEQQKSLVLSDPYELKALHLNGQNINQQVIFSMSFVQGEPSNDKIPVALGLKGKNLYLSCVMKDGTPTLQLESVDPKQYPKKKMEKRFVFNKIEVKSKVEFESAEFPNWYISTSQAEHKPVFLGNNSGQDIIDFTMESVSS
UniProt Q63264, 117-268 limits assumed: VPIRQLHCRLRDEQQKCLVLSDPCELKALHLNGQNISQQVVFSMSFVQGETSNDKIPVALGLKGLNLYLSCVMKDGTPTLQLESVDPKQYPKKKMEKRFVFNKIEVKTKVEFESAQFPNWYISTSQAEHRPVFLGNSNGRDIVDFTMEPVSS

These results are taken from patent US20170240629A1 (Hoffmann-La Roche, published 2017).

Like-named read-outs stand apart in the source and are kept apart here.

The target of experiment [1] is T1, human IL-1beta (human, UniProt P01584 117-269). Briefly: cell-based or functional assay.
The target of experiment [2] is T1, human IL-1beta. Nature of the experiment: cell-based or functional assay. This is another data set of the same source.
In experiment [3] the target is T1, human IL-1beta. Briefly: cell-based or functional assay. The source holds these as a separate data set.
The target of a further experiment is cynomolgus IL-1beta (cynomolgus, UniProt P79182 117-268). Nature of the experiment: SPR (BIAcore); antibody captured by anti-Fc, IL-1beta injected. In general terms: In SPR one partner is held on a chip, and binding of the other changes the refractive index at the surface.
Experiment [4] concerns the target T1, human IL-1beta. Briefly: cell-based or functional assay. This is another data set of the same source.
For experiment [5], the target named is T1, human IL-1beta. Briefly: cell-based or functional assay. The source holds these as a separate data set.
The target of a further experiment is murine IL-1beta (murine, UniProt P10749 118-269). Nature of the experiment: SPR (BIAcore); antibody captured by anti-Fc, IL-1beta injected.
A further experiment deals with rat IL-1beta (rat, UniProt Q63264 117-268). Described as above.

B1: Gevokizumab (antibody, V domains shown)
VH: QVQLQESGPGLVKPSQTLSLTCSFSGFSLSTSGMGVGWIRQPSGKGLEWLAHIWWDGDESYNPSLKSRLTISKDTSKNQVSLKITSVTAADTAVYFCARNRYDPPWFVDWGQGTLVTVSS
VL: DIQMTQSTSSLSASVGDRVTITCRASQDISNYLSWYQQKPGKAVKLLIYYTSKLHSGVPSRFSGSGSGTDYTLTISSLQQEDFATYFCLQGKMLPWTFGQGTKLEIK
Regarding B1, the figures for the “IC50, inhibition of ICAM-1 expression upon IL-1beta stimulation of A549 cells” value in the experiment with human IL-1beta [1] and with human IL-1beta [2] were 0.204 µg/mL and 0.94 nM, respectively. Further, the “EC50, reduction of IL-6 expression upon IL-1beta stimulation of A549 cells” value with human IL-1beta [3] was found to be 0.062 µg/mL; with human IL-1beta [4] it was 0.11 nM. Also, the Kd was 0.02 nM with cynomolgus IL-1beta, 0.22 nM with murine IL-1beta and 0.007 nM with rat IL-1beta. In the experiment with human IL-1beta [5], the “IC50, inhibition of proliferation of D10 cells” value amounted to 3.36 nM.
